Columns and labels:
human glucagon receptor = molecular target: T1, human glucagon receptor (Homo sapiens, UniProt P47871); assay: cAMP response (HTRF) of HEK-293 cells stably expressing human glucagon receptor; assay type: cell-based; conditions: Table 5; cAMP, HEK-293; read-out: EC50 hGlucagon-R
T1 construct: expressed in transfected cells; host or cells: HEK-293

Sequences of proteins named here, by UniProt entry; tags and fusion partners are left off. Residues count along the entry.
UniProt P47871, 26-477: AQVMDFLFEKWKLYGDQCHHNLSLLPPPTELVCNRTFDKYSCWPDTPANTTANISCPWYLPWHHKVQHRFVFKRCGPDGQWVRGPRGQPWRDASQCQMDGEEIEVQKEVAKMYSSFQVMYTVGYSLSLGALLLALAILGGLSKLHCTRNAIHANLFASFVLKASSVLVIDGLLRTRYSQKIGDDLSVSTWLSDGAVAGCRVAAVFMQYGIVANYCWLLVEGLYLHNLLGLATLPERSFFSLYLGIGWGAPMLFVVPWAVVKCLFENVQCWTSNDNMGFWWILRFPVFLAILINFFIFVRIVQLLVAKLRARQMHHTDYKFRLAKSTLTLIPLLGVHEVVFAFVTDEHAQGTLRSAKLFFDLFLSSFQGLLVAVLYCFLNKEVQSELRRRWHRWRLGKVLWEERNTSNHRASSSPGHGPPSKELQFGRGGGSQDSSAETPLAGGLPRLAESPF
UniProt P43220, 24-463: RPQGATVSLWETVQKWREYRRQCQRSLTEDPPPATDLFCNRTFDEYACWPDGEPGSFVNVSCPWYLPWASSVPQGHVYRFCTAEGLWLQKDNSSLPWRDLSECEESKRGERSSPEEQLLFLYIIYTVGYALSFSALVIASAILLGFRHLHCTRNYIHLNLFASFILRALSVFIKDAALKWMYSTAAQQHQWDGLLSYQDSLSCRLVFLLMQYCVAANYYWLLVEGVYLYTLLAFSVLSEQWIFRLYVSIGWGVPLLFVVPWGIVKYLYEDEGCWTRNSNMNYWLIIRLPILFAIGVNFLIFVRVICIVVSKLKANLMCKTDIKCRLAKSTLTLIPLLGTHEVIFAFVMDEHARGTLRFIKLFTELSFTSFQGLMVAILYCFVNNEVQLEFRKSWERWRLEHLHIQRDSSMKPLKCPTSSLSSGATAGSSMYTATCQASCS

human GLP-1 receptor = molecular target: T2, human GLP-1 receptor (Homo sapiens, UniProt P43220); assay: cAMP response (HTRF) of HEK-293 cells stably expressing human GLP-1 receptor; assay type: cell-based; conditions: Table 5; cAMP, HEK-293; read-out: EC50 hGLP-1R
T2 construct: expressed in transfected cells; host or cells: HEK-293

Row | SMILES | EC50 (human glucagon receptor) | EC50 (human GLP-1 receptor)
1 | CCCCCCCCCCCCCCCC(=O)N[C@@H](CCC(=O)NCCCC[C@H](NC(=O)[C@H](CCC(N)=O)NC(=O)[C@H](CCCCN)NC(=O)[C@H](CO)NC(=O)[C@H](CC(C)C)NC(=O)[C@H](CC(=O)O)NC(=O)[C@H](CO)NC(=O)[C@@H](NC(=O)[C@H](Cc1ccccc1)NC(=O)[C@@H](NC(=O)CNC(=O)[C@H](CCC(N)=O)NC(=O)[C@@H](CO)NC(=O)[C@@H](N)Cc1c[nH]cn1)[C@@H](C)O)[C@@H](C)O)C(=O)N[C@@H](CC(=O)O)C(=O)N[C@@H](CO)C(=O)N[C@@H](CCCNC(=N)N)C(=O)N[C@@H](CCCNC(=N)N)C(=O)N[C@@H](C)C(=O)N[C@@H](CCC(N)=O)C(=O)N[C@@H](CC(=O)O)C(=O)N[C@@H](Cc1ccccc1)C(=O)N[C@H](C(=O)N[C@@H](CCC(=O)O)C(=O)N[C@@H](Cc1c[nH]c2ccccc12)C(=O)N[C@@H](CC(C)C)C(=O)N[C@@H](CCCCN)C(=O)N[C@@H](CC(N)=O)C(=O)N[C@H](C(=O)NCC(=O)N1CCC[C@H]1C(=O)N[C@@H](CO)C(=O)N[C@@H](CO)C(=O)NCC(=O)N[C@@H](C)C(=O)N1CCC[C@H]1C(=O)N1CCC[C@H]1C(=O)N1CCC[C@H]1C(=O)N[C@@H](CO)C(N)=O)[C@@H](C)O)[C@@H](C)CC)C(=O)O [compound 92] | 1 pM | 26 pM
2 | CCCCCCCCCCCCCCCC(=O)N[C@@H](CCC(=O)NCCCC[C@H](NC(=O)[C@H](CCC(N)=O)NC(=O)[C@H](CCCCN)NC(=O)[C@H](CO)NC(=O)[C@H](CC(C)C)NC(=O)[C@H](CC(=O)O)NC(=O)[C@H](CO)NC(=O)[C@@H](NC(=O)[C@H](Cc1ccccc1)NC(=O)[C@@H](NC(=O)CNC(=O)[C@H](CCC(N)=O)NC(=O)[C@@H](CO)NC(=O)[C@@H](N)Cc1c[nH]cn1)[C@@H](C)O)[C@@H](C)O)C(=O)N[C@@H](CC(=O)O)C(=O)N[C@@H](CO)C(=O)N[C@@H](CCCNC(=N)N)C(=O)N[C@@H](CCCNC(=N)N)C(=O)N[C@@H](C)C(=O)N[C@@H](CCC(N)=O)C(=O)N[C@@H](CC(=O)O)C(=O)N[C@@H](Cc1ccccc1)C(=O)N[C@H](C(=O)N[C@@H](CCC(=O)O)C(=O)N[C@@H](Cc1c[nH]c2ccccc12)C(=O)N[C@@H](CC(C)C)C(=O)N[C@@H](CCCCN)C(=O)N[C@@H](CC(N)=O)C(=O)N[C@@H](C)C(=O)NCC(=O)N1CCC[C@H]1C(=O)N[C@@H](CO)C(=O)N[C@@H](CO)C(=O)NCC(=O)N[C@@H](C)C(=O)N1CCC[C@H]1C(=O)N1CCC[C@H]1C(=O)N1CCC[C@H]1C(=O)N[C@@H](CO)C(N)=O)[C@@H](C)CC)C(=O)O [compound 93] | 2.6 pM | 10.7 pM
3 | CCCCCCCCCCCCCCCC(=O)N[C@@H](CCC(=O)NCCCC[C@H](NC(=O)[C@H](CCC(N)=O)NC(=O)[C@H](CCCCN)NC(=O)[C@H](CO)NC(=O)[C@H](CC(C)C)NC(=O)[C@H](CC(=O)O)NC(=O)[C@H](CO)NC(=O)[C@@H](NC(=O)[C@H](Cc1ccccc1)NC(=O)[C@@H](NC(=O)CNC(=O)[C@H](CCC(N)=O)NC(=O)[C@@H](CO)NC(=O)[C@@H](N)Cc1c[nH]cn1)[C@@H](C)O)[C@@H](C)O)C(=O)N[C@@H](CC(=O)O)C(=O)N[C@@H](CO)C(=O)N[C@@H](CCCNC(=N)N)C(=O)N[C@@H](CCCNC(=N)N)C(=O)N[C@@H](C)C(=O)N[C@@H](CCC(N)=O)C(=O)N[C@@H](CC(=O)O)C(=O)N[C@@H](Cc1ccccc1)C(=O)N[C@H](C(=O)N[C@@H](CCC(=O)O)C(=O)N[C@@H](Cc1c[nH]c2ccccc12)C(=O)N[C@@H](CC(C)C)C(=O)N[C@@H](CCCCN)C(=O)N[C@@H](CC(N)=O)C(=O)N[C@H](C)C(=O)NCC(=O)N1CCC[C@H]1C(=O)N[C@@H](CO)C(=O)N[C@@H](CO)C(=O)NCC(=O)N[C@@H](C)C(=O)N1CCC[C@H]1C(=O)N1CCC[C@H]1C(=O)N1CCC[C@H]1C(=O)N[C@@H](CO)C(N)=O)[C@@H](C)CC)C(=O)O [compound 94] | 2.1 pM | 5.2 pM
